Patent US9913901B2, “Combination therapy for treating HER2-positive cancers” (Merrimack Pharmaceuticals, Inc., priority 2012, dated 2018)
Entries after “also recorded” stand apart in the source; their conditions may differ.

Assays:
BT-474-M3 cells = experiment: Co-localization of labeled MM-302 and trastuzumab by confocal microscopy; type: cell-based, human; conditions: co-incubation, 1 μM DIi5-labeled MM-302 and 1 μM 488-fluorophore-labeled trastuzumab
Method: Therefore, a co-localization experiment was performed.

[1] = tested on: MCF7 cells expressing HER2; experiment: Flow cytometry: MM-302 binding after trastuzumab pre-incubation; type: cell-based; conditions: 0, 3 or 10 μg/ml trastuzumab, then 3 μg/ml DIi5 MM-302, 3 hours at 37° C.; DIi5 and doxorubicin MFI
Method: Cells were evaluated by flow cytometry for both DIi5 labeled lipid in the liposome (left y-axis as mean fluorescence intensity (MFI)) and doxorubicin encapsulated by the liposome (right y-axis as MFI).
After incubation, cells were washed and then evaluated by flow cytometry for both liposome signal (DIi5) and doxorubicin signal (Dox).

BT-474-M3 xenograft = experiment: Breast tumor xenograft model; type: in vivo, mice
NCI-N87 xenograft = experiment: Gastric tumor xenograft model; type: in vivo, mice
[2] = tumors that grew >20% in volume from baseline

With “trastuzumab: therapeutic anti-HER2 antibody that blocks intracellular signaling mediated by HER2” the “binding to the cell membrane (co-localization)” value (BT-474-M3 cells) was “both bind to the cell membrane; also recorded: both agents co-localize to the cell membrane”, the “effect of trastuzumab incubation on subsequent binding of MM-302” value [1] was “did not prevent subsequent binding of MM-302; also recorded: does not prevent subsequent binding of MM-302” and the “Responders (%)” value (BT-474-M3 xenograft; tumors shrinking >30%) was “(10%)”. For the same substance, the “PD (%)” value (BT-474-M3 xenograft; [2]) was “(50%)”, the “PD (number of tumors)” value (BT-474-M3 xenograft; [2]) was 5 and the “Responders (%)” value (NCI-N87 xenograft; tumors shrinking >30%) was “(22%)”. The “PD (number of tumors)” value (NCI-N87 xenograft; [2]) was 0.
